Laboratory results taken from paper PMC6113202.

Test system: Scram (DNA, duplex) GTCGTTCTGATCCAGGTGATGTAGTCGACG/CGTCGACTACATCACCTGGATCAGAACGAC
Test: fluorescence turn-on
Conditions: KCl 150 mM in p53 buffer (80% v/v); NaCl 50 mM in DNA buffer (15% v/v); NaPi pH 7.2, DTT, Tris-HCl, 5% DMSO; room temperature; dye 100 nM

- binding: weak
SMILES: N#C/C(=C\c1ccc2ccc3cccc4ccc1c2c34)C(=O)O
